Assay results as given in patent US9164075B2, “Glutathione alkylester isotopologue and method for detecting reactive metabolite” (priority 2011, dated 2015).

Experimental: NADPH (20 mmol/L, […]) was added to the pre-incubated incubation mixture and a reaction (incubation) was started. The final incubation volume was 1 mL. A sample containing no object compound was used as a control.
After incubation at 37° C. for 60 minutes, a 50 mmol/L aqueous dithiothreitol solution (100 μL, 5 μmol) was added to the incubation mixture, and the resultant mixture was subjected to centrifugation at 10,000 g for 5 minutes. The centrifugation supernatant was added to a solid phase extraction column (OASIS HLB 1 cc, 30 mg) that was pre-washed with 1 mL of methanol and activated with 1 mL of purified water. The column was washed with 1 mL of water and 1 mL of 5% methanol solution, and a reaction product was eluted with 1 mL of methanol. The solvent was removed by evaporation under nitrogen flow, and the residue was dissolved in 150 μL of acetonitrile:water (2:8) to prepare an analysis sample.
An AQCUITY UPLC system (WATERS) was used for separation by chromatography. Aliquots (10 μL) of the prepared analysis sample was injected into an AQCUITY UPLC BEH C18 column (2.1×100 mm, 1.7 μm). The separation by chromatography was performed under gradient conditions shown in the following table at a mobile phase flow rate of 0.5 mL/minute.
The LC column eluate obtained in step 2-1 was introduced into an LTQ XL ion trap mass spectrometer. […]

With O=C(O)Cc1ccccc1Nc1c(Cl)cccc1Cl [diclofenac] the “NUMBER OF IDENTIFIED REACTIVE METABOLITES (EXAMPLES)” value was “two”.
